Source: PubChem BioAssay AID1963822 (ICCB-Longwood Screening Facility, Harvard Medical School, 2024)
The entries are a selection whose mix differs from that of the whole data set. Some of these compounds have results that are not shown, active ones among them. Active and inactive are the calls of the source. No rule for the calls is given here.

Experiment: anaerobic choline-dependent bacterial growth inhibition – minimal medium, absorbance (AID 1963822)
Details: Gram-negative bacterium anaerobic choline minimal medium, hits give low values

SMILES	z-score
Cc1ccc2oc(C(=O)NCC3(N(C)C)CCCCC3)c(C)c2c1	inactive: -0.31
Cc1cc(C)c2c(C)c(C(=O)NCC3(N(C)C)CCCCC3)oc2c1	inactive: -0.5
Cc1c(C(=O)NCC2(N(C)C)CCCCC2)oc2ccccc12	inactive: -0.37
Cc1cc2oc(C(=O)NCC3(N(C)C)CCCCC3)c(C)c2cc1Cl	inactive: -0.37
Cc1c(C(=O)NCC2(N(C)C)CCCCC2)oc2ccc(F)cc12	inactive: -2.34
Cc1ccc2c(C)c(C(=O)NCC3(N(C)C)CCCCC3)oc2c1	inactive: 0.85
Cc1ccc2c(Cl)c(C(=O)NCC3(N(C)C)CCCCC3)sc2c1	inactive: 0.04
